# Laboratory results from patent publication US20210223237A1, “COMPOSITIONS AND METHODS FOR STUDYING DRUG METABOLISM” (Boehringer Ingelheim International GmbH, priority 2020, published 2021).
# Assay: Microsomal binding (fu,mic) using rapid equilibrium dialysis (RED)
# Conditions: compound 1.0 μM, (SD)
compound,measurement,setting,value
"Cc1ncc2n1-c1ccc(Cl)cc1C(c1ccccc1F)=NC2 [Midazolam, midazolam]","fu,mic",HLM 0.50 mg/ml,0.67 (0.06)
same,"fu,mic",HLM 1.0 mg/ml,0.52 (0.08)
